Publication PMC7265341 (2020)
“And” between values parts separate entries of the source, which are not always exact repeats. Equal entries are not always repeated. Where two headings read alike, the source gives them in different places.

The chains behind the UniProt entries cited, without tags or fusion partners. Where a name states a change or a piece, a line headed by the entry shows the natural chain unless it says otherwise.
UniProt P50750, whole entry: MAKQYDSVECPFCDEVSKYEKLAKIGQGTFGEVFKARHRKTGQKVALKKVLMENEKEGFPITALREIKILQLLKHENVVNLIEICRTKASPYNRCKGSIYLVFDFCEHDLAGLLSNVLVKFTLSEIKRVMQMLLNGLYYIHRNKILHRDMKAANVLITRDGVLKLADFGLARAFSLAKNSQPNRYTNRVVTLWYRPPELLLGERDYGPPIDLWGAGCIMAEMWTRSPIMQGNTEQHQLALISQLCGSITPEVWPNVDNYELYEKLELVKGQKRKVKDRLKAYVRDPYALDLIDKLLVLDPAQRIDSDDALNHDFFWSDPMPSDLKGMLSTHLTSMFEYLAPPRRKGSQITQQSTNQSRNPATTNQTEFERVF
UniProt P06493, whole entry: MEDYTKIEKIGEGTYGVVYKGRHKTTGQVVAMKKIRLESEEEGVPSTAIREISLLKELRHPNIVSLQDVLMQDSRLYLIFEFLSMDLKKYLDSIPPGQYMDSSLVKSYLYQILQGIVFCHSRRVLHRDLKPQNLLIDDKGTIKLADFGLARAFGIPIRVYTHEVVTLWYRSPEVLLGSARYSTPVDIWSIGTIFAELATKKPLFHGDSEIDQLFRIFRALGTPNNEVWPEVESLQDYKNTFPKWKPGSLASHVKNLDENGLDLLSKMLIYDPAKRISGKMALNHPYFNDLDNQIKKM
UniProt Q96Q40: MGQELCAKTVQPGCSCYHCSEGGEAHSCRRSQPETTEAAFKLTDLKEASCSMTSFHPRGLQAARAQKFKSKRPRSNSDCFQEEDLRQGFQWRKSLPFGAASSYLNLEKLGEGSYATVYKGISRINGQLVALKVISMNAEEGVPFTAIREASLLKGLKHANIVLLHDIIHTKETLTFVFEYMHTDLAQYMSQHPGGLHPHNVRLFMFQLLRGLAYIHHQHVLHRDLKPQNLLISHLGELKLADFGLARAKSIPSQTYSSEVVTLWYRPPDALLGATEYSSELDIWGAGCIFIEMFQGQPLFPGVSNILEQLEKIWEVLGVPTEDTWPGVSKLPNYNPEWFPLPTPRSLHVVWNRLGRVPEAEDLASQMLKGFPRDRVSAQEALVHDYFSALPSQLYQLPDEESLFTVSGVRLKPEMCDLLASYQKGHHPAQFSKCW

Tests used:
CDK9/Cyclin K = CDK9/Cyclin K (Homo sapiens, UniProt P50750); assay: NanoBRET live-cell target engagement, NanoLuc-CDK9/Cyclin K in HEK-293; assay type: binding; details: CDK9/K
CDK1/Cyclin E1 = CDK1/Cyclin E1 (Homo sapiens, UniProt P06493); assay: NanoBRET live-cell target engagement, CDK1-NanoLuc/Cyclin E1 in HEK-293
CDK15/Cyclin Y = CDK15/Cyclin Y (Homo sapiens, UniProt Q96Q40); assay: NanoBRET live-cell target engagement, NanoLuc-CDK15/Cyclin Y in HEK-293; details: read-out: Inhibition at 10µM (%), CDK15/Y; experiment 1
[1] = read-out: IC50 (nM) Average*, n=3 average ± SEM, n=2 average to 2 significant figures
[2] = read-out: IC50 (nM) Replicate 1
[3] = read-out: IC50 (nM) Replicate 2

SMILES | IC50 (CDK9/Cyclin K; [1]) | IC50 (CDK9/Cyclin K; [2]) | IC50 (CDK9/Cyclin K; [3]) | Inhibition at 10µM (%) (CDK1/Cyclin E1; 10 µM) | inhibition at 10 µM (CDK1/Cyclin E1; read-out: Inhibition at 10µM (%)) | inhibition at 10 µM (CDK15/Cyclin Y)
CNC1CCN(C(=O)c2ccc(Nc3ncc(F)c(-c4cnc(C)n4C(C)C)n3)cc2)C1 (stereo not drawn) [AZD5597] | 9 nM | 10 nM | 7.9 nM | – | – | –
CC(C)c1cnn2c(NCc3ccccc3)cc(N[C@@H](CO)[C@H](O)CO)nc12 [BS-194] | 20 nM | 22 nM | 17 nM | – | – | –
CC(C)c1cnn2c(NCc3ccccc3)cc(NC[C@H]3CCNC[C@@H]3O)nc12 [CT7001] | – | – | – | 68.4% and 64.3% | 60.3% | –
CCc1cnn2c(NCc3ccc[n+]([O-])c3)cc(N3CCCC[C@H]3CCO)nc12 [Dinaciclib] | – | – | – | – | – | 94.4%
